Reference: patent publication US20090062180

Legend:
[1] = biological target: T1, Peptide No. 11 KEEPPAPPQEP
T1 chain: KEEPPAPPQEP

[2] = biological target: T2, Peptide No. 14 EPPAPR
T2 chain: EPPAPR

[3] = biological target: T3, Peptide No. 5 KRREILARRPS(p)YR (Hz13)
T3 chain: KRREILARRPSYR

[4] = biological target: T4, Peptide No. 13 EPPAPRRE
T4 chain: EPPAPRRE

[5] = biological target: T5, Peptide No. 10 KEEPPAPPQSP
T5 chain: KEEPPAPPQSP

[6] = biological target: T6, Peptide No. 1 KRREILS1RRPS2(p)YR (derived from CREB)
T6 chain: KRREILSRRPSYR

[7] = biological target: T7, Peptide No. 12 PAPPQS(p)P
T7 chain: PAPPQSP

[8] = biological target: T8, Peptide No. 9 KEAPPAPPQS(p)P (L803)
T8 chain: KEAPPAPPQSP

[9] = biological target: T9, Peptide No. 8 KEEPPAPPQS(p)P (pAHSF)
T9 chain: KEEPPAPPQSP

[10] = biological target: T10, Peptide No. 4 ILSRPPY(p)YR
T10 chain: ILSRPPYYR

[11] = biological target: T11, Peptide No. 7 KEEPPSPPQS(p)P (derived from Heat shock factor-1)
T11 chain: KEEPPSPPQSP

[12] = biological target: T12, Peptide No. 3 ILSRPPEYR
T12 chain: ILSRPPEYR

Measured: Substrate functionality

B1: Purified recombinant rabbit GSK-3β (glycogen synthase kinase-3β) (protein)
chain: MSGRPRTTSFAESCKPVQQPSAFGSMKVSRDKDGSKVTTVVATPGQGPDRPQEVSYTDTKVIGNGSFGVVYQAKLCDSGELVAIKKVLQDKRFKNRELQIMRKLDHCNIVRLRYFFYSSGEKKDEVYLNLVLDYVPETVYRVARHYSRAKQTLPVIYVKLYMYQLFRSLAYIHSFGICHRDIKPQNLLLDPDTAVLKLCDFGSAKQLVRGEPNVSYICSRYYRAPELIFGATDYTSSIDVWSAGCVLAELLLGQPIFPGDSGVDQLVEIIKVLGTPTREQIREMNPNYTEFKFPQIKAHPWTKVFRPRTPPEAIALCSRLLEYTPTARLTPLEACAHSFFDELRDPNVKLPNGRDTPALFNFTTQELSSNPPLATILIPPHARIQAAASTPTNATAASDANAGDRGQTNNAASASASNST
+: [6] | [11]
-: all other assays above
